Literature values as cited in patent US10739353B2, “Suppression of cytokine release and cytokine storm” (SignPath Pharma Inc., priority 2014, dated 2020).

Conditions: neonatal mouse; cited from earlier work

In the case of CN(C)c1ccc(O)c2c1C[C@H]1C[C@H]3[C@H](N(C)C)C(O)=C(C(N)=O)C(=O)[C@@]3(O)C(O)=C1C2=O [minocycline], the ischemic brain injury is given as “increased ischemic brain injury”.
